Target: T1, recombinant human sEH (Homo sapiens, UniProt P34913)
T1 construct: purchased Cayman Chemical 10011669
Experiment: In vitro determination of sEH inhibition activity (fluorescent assay, PHOME substrate)
Assay type: biochemical
Settings: mean ± Standard Error, min. three replicates, read-out: IC50 (nM) ± SE, sEH inhibition activity
Experimental: 3-(Phenyl-oxiranyl)-acetic acid cyano-(6-methoxy-naphthalen-2-yl)-methyl ester (PHOME; from Cayman Chemical, item number 10009134; CAS 1028430-42-3); cf. N. M. Wolf et al., Anal. Biochem. 2006, vol. 355, pp. 71-80.
Solutions: • Assay buffer: Bis/Tris HCl 25 mM pH 7.0 containing 0.1 mg/mL of bovine serum albumin (BSA). • PHOME at 200 μM in DMSO. • Solution of recombinant human sEH (Cayman Chemical, item number 10011669), diluted with assay buffer. • Inhibitors dissolved in DMSO at appropriated concentrations.
In a black 96-well plate (Greiner Bio-One, item number 655900), fill the background wells with 90 μL and the positive control and inhibitor wells with 85 μL of assay buffer. Add 5 μL of DMSO to background and positive control wells, and then add 5 μL of inhibitor solution in inhibitor wells. Add 5 μL of the solution of hsEH to the positive control and inhibitor wells and mix several time. Prepare a 1/21 dilution of the solution of PHOME with assay buffer according to final volume required, and then add 105 μL of each well. Shake carefully the plate for 10 seconds and incubate for 5 minutes at room temperature. […] Results were obtained by regression analysis from at least three data points in a linear region of the curve. IC50 values are average of minimum three independent replicates.

Sequences of proteins named here, by UniProt entry; tags and fusion partners are left off.
UniProt P34913, whole entry: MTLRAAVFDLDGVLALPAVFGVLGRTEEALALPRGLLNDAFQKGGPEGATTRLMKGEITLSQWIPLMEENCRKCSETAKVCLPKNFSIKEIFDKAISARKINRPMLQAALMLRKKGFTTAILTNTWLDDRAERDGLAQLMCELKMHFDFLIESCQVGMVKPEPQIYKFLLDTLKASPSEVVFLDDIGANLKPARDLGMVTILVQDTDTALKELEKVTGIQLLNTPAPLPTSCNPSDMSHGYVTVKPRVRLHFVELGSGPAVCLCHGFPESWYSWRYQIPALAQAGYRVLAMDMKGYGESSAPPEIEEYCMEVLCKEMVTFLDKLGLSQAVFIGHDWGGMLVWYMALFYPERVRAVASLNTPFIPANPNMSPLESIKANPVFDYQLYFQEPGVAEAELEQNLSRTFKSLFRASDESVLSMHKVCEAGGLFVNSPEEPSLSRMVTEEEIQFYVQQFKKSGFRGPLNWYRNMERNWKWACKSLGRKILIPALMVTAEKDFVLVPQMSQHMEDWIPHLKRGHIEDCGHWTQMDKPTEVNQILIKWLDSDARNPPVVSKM

| SMILES | IC50 [nM] |
| --- | --- |
| O=C(Nc1ccc(F)c(F)c1F)NC12CC3CC(CC(C3)O1)C2 [Ia, 1-(2-oxaadamantan-1-yl)-3-(2,3,4-trifluorophenyl)urea] | 2.58 |
| O=C(Nc1ccc(F)c(F)c1F)NC12CC3CC(CC(C3)C1)C2 [Std 1, 1-(Adamantan-1-yl)-3-(2,3,4-trifluorophenyl)urea, reference compound] | 7.74 |
